Experimental data: ChEMBL document CHEMBL1135916, “Design, synthesis, and structure-activity relationship of pyridyl imidazolidinones: a novel class of potent and selective human enterovirus 71 inhibitors” (J Med Chem, 2002)

Columns and labels:
Assay type in all cases: functional
[1] = Selectivity index (W138/EV71) of the compound
[2] = Selectivity index (RD/EV71) of the compound
[3] = Selectivity index (D551/EV71) of the compound

For `O=C1N(CCCCCOc2ccc(-c3ccc(Cl)cc3)cc2)CCN1c1ccncc1`, the Selectivity index [1] was 533 and 960, the Selectivity index [2] was 104 and 250 and the Selectivity index [3] was 100 and 260.

“And” between values parts separate entries of the source, which are not always exact repeats. Equal values may be shown once.
